Source: patent US20160185875A1 (DCB USA, published 2016)

Protein sequences, listed by entry. Tags and fused reporters are not part of them. Residues count along the entry.
UniProt P01375, 77-233 limits assumed: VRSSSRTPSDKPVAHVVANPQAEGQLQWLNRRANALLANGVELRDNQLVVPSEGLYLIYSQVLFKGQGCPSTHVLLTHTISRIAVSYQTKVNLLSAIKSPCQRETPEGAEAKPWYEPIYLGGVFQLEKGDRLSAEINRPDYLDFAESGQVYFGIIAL

B1: IgG4 hinge/MMP2/infliximab (antibody)
light: ESKYGPPCPSCPGPLGVRDILLTQSPAILSVSPGERVSFSCRASQFVGSSIHWYQQRTNGSPRLLIKYASESMSGIPSRFSGSGSGTDFTLSINTVESEDIADYYCQQSHSWPFTFGSGTNLEVKRTVAAPSVFIFPPSDEQLKSGTASVVCLLNNFYPREAKVQWKVDNALQSGNSQESVTEQDSKDSTYSLSSTLTLSKADYEKHKLYACEVTHQGLSSPVTKSFNRGEC
heavy: not shown
notes: Uncleaved; also called IgG4 hinge/MMP2/anti-TNF-α antibody
B2: IgA2 hinge/MMP2/infliximab (antibody)
light: PVPPPPPCCHGPLGVRDILLTQSPAILSVSPGERVSFSCRASQFVGSSIHWYQQRTNGSPRLLIKYASESMSGIPSRFSGSGSGTDFTLSINTVESEDIADYYCQQSHSWPFTFGSGTNLEVKRTVAAPSVFIFPPSDEQLKSGTASVVCLLNNFYPREAKVQWKVDNALQSGNSQESVTEQDSKDSTYSLSSTLTLSKADYEKHKLYACEVTHQGLSSPVTKSFNRGEC
heavy: not shown
notes: Uncleaved; also called IgA2 hinge/MMP2/anti-TNF-α antibody

Molecular target: T1, TNF-α (UniProt P01375 77-233)
T1 construct: also called tumor necrosis factor-alpha
Assay: ELISA on coated TNF-α, before MMP2 treatment (FIG. 10)

Binder	antigen-binding capability (% of parent antibody)
B1	31.5%
B2	23.5%
